These results are taken from PubChem BioAssay AID1008 (NMMLSC, 2008).

Chains of the proteins cited; added tags and fusions are not shown. Lines headed by an entry give the natural chain unless they say otherwise; changes in a name come on top.
UniProt Q16548: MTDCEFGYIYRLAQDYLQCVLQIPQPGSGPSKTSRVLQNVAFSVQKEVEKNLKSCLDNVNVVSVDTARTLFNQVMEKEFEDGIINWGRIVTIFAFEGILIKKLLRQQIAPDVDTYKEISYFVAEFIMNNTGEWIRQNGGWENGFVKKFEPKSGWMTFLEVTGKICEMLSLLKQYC

The list shows a part of the results, in another mix than the full data. Calls of active or inactive are those of the source. Rule as the data show it: active = inhibition above about 40%.

The assay deals with Bcl-2-related protein A1 (Homo sapiens) (UniProt Q16548). The assay can be described thus: inhibitors of Bim binding to Bfl-1, primary screen, biochemical, multiplexed, bead-based flow cytometry (AID 1008).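 Also: 0% = wells without compound plus tracer and 100% = blocker peptide.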 As to conditions: Bim-Bfl-1 binding inhibition, at 10 µM, active compounds read high.
Consider `O=[N+]([O-])c1ncn(CCn2ncnc2[N+](=O)[O-])n1`, for which the inhibition is inactive: -2%.

Consider `CCN(/C(=N/P(=O)(N1CCOCC1)N1CCOCC1)N1CCOCC1)c1ccc(OC)cc1`, for which the inhibition was inactive: 2%.

Consider `CC1CCN(C(=O)Oc2c(Cl)cc(Cl)c3cccnc23)CC1`, for which the inhibition is inactive: -4%.

With `CC(C)=N/N=C(\N)N[N+](=O)[O-]`, the inhibition was inactive: -11%.

For the molecule `CN(C)C(=O)OCCc1n(C)cc[n+]1C`, the inhibition is inactive: -4%.

With `COc1ccc(C2=NCC(CBr)S2)cc1` (stereo not drawn), the inhibition was inactive: -9%.

For `Cc1ccc(NP(=O)(Oc2ccccc2)Oc2ccccc2)nc1`, the inhibition was inactive: -5%.

As for `CCc1nc2c(n1)c1c(non1O)c1c2no[n+]1[O-]`, the inhibition is inactive: 19%.

Turning to `O=[N+]([O-])c1cc([N+](=O)[O-])c(CCNc2ccccc2)c([N+](=O)[O-])c1`, the inhibition is inactive: -1%.

For `O=[N+]([O-])c1cccc2n[nH]nc12`, the inhibition is inactive: -9%.

For `CC(=O)N1C2C3N(C(C)=O)C1C1N(C(C)=O)C(C(N1C(C)=O)N3C(C)=O)N2C(C)=O`, the inhibition was inactive: -7%.

On to `Oc1ccccc1CNc1ccccn1`, for which the inhibition was inactive: -21%.

In the case of `Cc1c2non([O-])c-2c(C)[n+](=O)[n+]1[O-]`, the inhibition was inactive: 4%.

With `O=C(NC(Sc1ccncn1)C(Cl)(Cl)Cl)c1ccccc1` (stereo not drawn), the inhibition was inactive: 0%.

As to `CC(C)CC(=O)NC(Sc1ccc(Cl)cc1)C(Cl)(Cl)Cl` (stereo not drawn), the inhibition is inactive: -9%.

As to `Cc1ccc(N/C(=N/P(=O)(N2CCOCC2)N2CCOCC2)N2CCOCC2)cc1`, the inhibition was inactive: -1%.

Turning to `NC(=O)c1cc([N+](=O)[O-])cc([N+](=O)[O-])c1N`, the inhibition was inactive: -2%.

With `Clc1ccc(Cl)c(NC2=NCC(CBr)S2)c1` (stereo not drawn), the inhibition is inactive: -3%.

With `CN1CCCC(OC(=O)C(c2ccccc2)c2ccccc2)C1` (stereo not drawn), the inhibition was inactive: 3%.

In the case of `COc1ccccc1OP(=O)(Nc1ccc(C)cn1)Oc1ccccc1OC`, the inhibition is inactive: -6%.

Turning to `CCN(N=Nc1nonc1N)c1nonc1N`, the inhibition is inactive: -16%.

On to `CCOP(=O)(Nc1ccccc1)OCC`, for which the inhibition is inactive: -11%.

With `Cc1cc(SC(NC(=O)c2ccc(F)cc2)C(Cl)(Cl)Cl)ncn1` (stereo not drawn), the inhibition is inactive: -10%.

`CCC(=O)N1C2C3N(C(=O)CC)C1C1N(C(=O)CC)C(C(N1C(=O)CC)N3C(=O)CC)N2C(=O)CC`: the inhibition is inactive: 6%.

In the case of `COC(=O)c1cc2c(s1)N=C(c1ccccc1)N(C)P2(=O)N1CCOCC1` (stereo not drawn), the inhibition was inactive: -3%.

For `Cc1ccc(OP(=O)(Nc2ccccn2)Oc2ccc(C)cc2)cc1`, the inhibition is inactive: -1%.

Regarding `CC(=O)NC(SC(=S)N(CC(C)C)CC(C)C)C(Cl)(Cl)Cl` (stereo not drawn), the inhibition was inactive: 1%.

Turning to `O=c1c2cc([N+](=O)[O-])ccc2[nH]c2c([N+](=O)[O-])cc([N+](=O)[O-])cc12`, the inhibition was inactive: -5%.
